Results from patent US20030073731A1, “Compositions and methods of the use thereof achiral analogues of CC-1065 and the duocarmycins” (priority 2000, published 2003).

Key:
[1] = tested on: LOX IMVI
[2] = tested on: MOLT-4
[3] = tested on: SF-539
[4] = tested on: M14
[5] = tested on: SNB-75
[6] = tested on: MDA-MB-231/ATCC; settings: read-out: LC50
[7] = tested on: HS 578T
[8] = tested on: K-562
[9] = tested on: TK-10
[10] = tested on: OVCAR-8
[11] = tested on: NCI-H23
[12] = tested on: UACC-62
[13] = tested on: UACC-257
[14] = tested on: SN12C
[15] = tested on: ACHN
[16] = tested on: NCI-H226
[17] = tested on: 786-0
[18] = tested on: SK-MEL-2
[19] = tested on: NCI-H522
[20] = tested on: SK-MEL-28
[21] = tested on: NCI-H332M
[22] = tested on: HT29
[23] = tested on: MCF7/ADR-RES; settings: read-out: LC50
[24] = tested on: CCRF-CEM
[25] = tested on: KM12
[26] = tested on: SF-268
[27] = tested on: SK-OV-3
[28] = tested on: DU-145
[29] = tested on: MALME-3M
[30] = tested on: HCT-15
[31] = tested on: MDA-MB-435
[32] = tested on: EKVX
[33] = tested on: UO-31
[34] = tested on: OVCAR-4
[35] = tested on: HCC-2998
[36] = tested on: HOP-92
[37] = tested on: SK-MEL-5
[38] = tested on: SNB-19
[39] = tested on: RPMI-8226
[40] = tested on: U251
[41] = tested on: HCT-116
[42] = tested on: CAKI-1
[43] = tested on: PC-3
[44] = tested on: OVCAR-3
[45] = tested on: HOP-62
[46] = tested on: SR
[47] = tested on: SF-295
[48] = tested on: OVCAR-5
[49] = tested on: MDA-N
[50] = tested on: MCF7
[51] = tested on: SW-620
[52] = tested on: IGROV1
[53] = tested on: A549/ATCC
[54] = tested on: BT-549
[55] = tested on: panel of 60 human cancer cell lines; settings: 48 hour exposure
[56] = tested on: NCI-H460; assay: NCI in-vitro cytotoxicity screen, Non-Small Cell Lung Cancer panel; type: cell-based; settings: Homo sapiens, NCI-H460, read-out: LC50

“4-(2-Chloroethyl)-3-[5-(5-benzofuran-2-carboxamido)indole-2-carboxamido]phenol [Compound 1]” was tested, and the CC50 [1] was 42.2 µM, the CC50 [2] was over 100 µM and the CC50 [3] was 9 µM. The CC50 [4] was 6.81 µM, the CC50 [5] was 59 µM and the CC50 [6] was 49.6 µM. It also gave a CC50 [7] of over 100 µM, a CC50 [8] of over 100 µM and a CC50 [9] of 19.9 µM. For the same molecule, the CC50 [10] was 8.12 µM, the CC50 [11] was 6.84 µM and the CC50 [12] was 6.18 µM. For the same molecule, the CC50 [13] was 6.18 µM, the CC50 [14] was 43.5 µM and the CC50 [15] was 23.4 µM. It also gave a CC50 [16] of 44.4 µM, a CC50 [17] of 98.3 µM and a CC50 [18] of 5.43 µM. The CC50 [19] was 9.33 µM, the CC50 [20] was 2.14 µM and the CC50 [21] was 33 µM. For the same molecule, the CC50 [22] was 96.6 µM, the CC50 [23] was 8.7 µM and the CC50 [24] was over 100 µM. The CC50 [25] was 65 µM, the CC50 [26] was 57.3 µM and the CC50 [27] was 26.7 µM. For the same molecule, the CC50 [28] was 27.4 µM, the CC50 [29] was 6.87 µM and the CC50 [30] was 16.7 µM. It also gave a CC50 [31] of 7.45 µM, a CC50 [32] of 13.7 µM and a CC50 [33] of 20 µM. For the same molecule, the CC50 [34] was 13.5 µM, the CC50 [35] was 7.22 µM and the CC50 [36] was 15.6 µM. It also gave a CC50 [37] of 6.44 µM, a CC50 [38] of 51.6 µM and a CC50 [39] of over 100 µM. It also gave a CC50 [40] of 53.5 µM, a CC50 [41] of 24.3 µM and a CC50 [42] of 27.7 µM. For the same molecule, the CC50 [43] was 18.2 µM, the CC50 [44] was 10.9 µM and the CC50 [45] was 19.5 µM. For the same molecule, the CC50 [46] was over 100 µM, the CC50 [47] was 24.2 µM and the CC50 [48] was 20 µM. It also gave a CC50 [49] of 19.7 µM, a CC50 [50] of 5 µM and a CC50 [51] of 53.5 µM. The CC50 [52] was 7.77 µM, the CC50 [53] was 24.8 µM and the CC50 [54] was over 100 µM. For the same molecule, the “cytotoxic activity in the NCI screen” value [55] was “activity in the micromolar range”.

Work on `COC(=O)c1[nH]c2c(O)cc(NC(=O)c3cc4cc(OC)c(OC)c(OC)c4[nH]3)c(CCCl)c2c1C(=O)OC` [Compound 22, Dimethyl 4-(2-chloroethyl)-7-hydroxy-5-(5,6,7-trimethoxyindole-2-carboxamido)indole-2,3-dicarboxylate] yielded a CC50 [56] of 27.4 µM.
